The values that follow are results of earlier work, collected in patent US20100113605A1 (priority 2007, published 2010).

Chains of the proteins cited; added tags and fusions are not shown. Residues count along the entry.
UniProt Q9WTR4, 1-597: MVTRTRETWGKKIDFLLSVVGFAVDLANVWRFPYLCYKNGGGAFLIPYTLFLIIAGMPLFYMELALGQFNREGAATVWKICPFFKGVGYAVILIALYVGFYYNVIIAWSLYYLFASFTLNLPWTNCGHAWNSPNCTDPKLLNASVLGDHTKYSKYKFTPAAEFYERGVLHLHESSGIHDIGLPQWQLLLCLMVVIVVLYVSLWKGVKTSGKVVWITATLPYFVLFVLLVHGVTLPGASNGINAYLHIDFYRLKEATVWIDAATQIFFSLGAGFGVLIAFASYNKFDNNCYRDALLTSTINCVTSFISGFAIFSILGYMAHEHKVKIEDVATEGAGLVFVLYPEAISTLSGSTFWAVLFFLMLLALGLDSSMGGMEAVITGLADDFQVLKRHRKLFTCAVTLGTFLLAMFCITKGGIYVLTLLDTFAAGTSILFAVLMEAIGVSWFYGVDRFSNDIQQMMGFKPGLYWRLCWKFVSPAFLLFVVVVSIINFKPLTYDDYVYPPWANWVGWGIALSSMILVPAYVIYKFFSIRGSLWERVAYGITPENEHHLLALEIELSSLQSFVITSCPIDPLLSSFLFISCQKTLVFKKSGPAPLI
UniProt P31652, whole entry: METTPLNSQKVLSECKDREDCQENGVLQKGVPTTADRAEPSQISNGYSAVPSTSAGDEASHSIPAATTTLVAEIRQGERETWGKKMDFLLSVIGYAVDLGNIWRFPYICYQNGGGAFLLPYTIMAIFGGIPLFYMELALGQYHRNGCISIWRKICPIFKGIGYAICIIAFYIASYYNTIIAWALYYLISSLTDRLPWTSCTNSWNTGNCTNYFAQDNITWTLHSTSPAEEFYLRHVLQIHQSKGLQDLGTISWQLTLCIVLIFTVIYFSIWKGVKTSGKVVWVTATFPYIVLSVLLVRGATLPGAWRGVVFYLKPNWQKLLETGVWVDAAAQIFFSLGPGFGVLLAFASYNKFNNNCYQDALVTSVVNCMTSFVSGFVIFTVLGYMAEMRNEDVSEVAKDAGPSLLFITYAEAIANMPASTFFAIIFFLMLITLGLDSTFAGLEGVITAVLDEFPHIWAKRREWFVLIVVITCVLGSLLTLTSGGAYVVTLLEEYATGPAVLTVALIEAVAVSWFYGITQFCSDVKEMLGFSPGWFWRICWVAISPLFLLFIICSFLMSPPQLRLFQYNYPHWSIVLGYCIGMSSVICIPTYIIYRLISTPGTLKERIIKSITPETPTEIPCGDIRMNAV

The term Ki denotes the equilibrium dissociation constant of an inhibitor or competing ligand from its target.

Molecules are shown by their SMILES. Like-named read-outs stand apart in the source and are kept apart here.

For data set [1], the target named is T1, NET (Rattus norvegicus, UniProt Q9WTR4).
T1 construct: from tissue; host or cells: rat brain synaptosomes
As to conditions: read-out: [^3H]Monoamine reuptake inhibition into rat brain synaptosomes, Noradrenaline (Ki).

Data set [2] deals with T2, SERT (Rattus norvegicus, UniProt P31652).
T2 construct: from tissue; host or cells: rat brain synaptosomes
The note with it: read-out: [^3H]Monoamine reuptake inhibition into rat brain synaptosomes, 5-HT (Ki).

`COC(=O)[C@H]1[C@@H](OC(=O)c2ccccc2)C[C@@H]2CC[C@H]1N2C` [Cocaine, cocaine]: the Ki in data set [1] (Hyttel (1982)) was 220 nM; in data set [1] (Richelson & Pfenning (1984)), 155 nM; in data set [2] (Hyttel (1982)), 260 nM; in data set [2] (Richelson & Pfenning (1984)), 180 nM.
